In patent publication US20090036450A1, “PYRAZOLE COMPOUNDS AND USE THEREOF” (JAPAN TOBACCO, INC., priority 2006, published 2009) one finds IC50 data, which are given here for one compound.

Protein sequences, listed by entry. Tags and fused reporters are not part of them.
UniProt P06737, whole entry: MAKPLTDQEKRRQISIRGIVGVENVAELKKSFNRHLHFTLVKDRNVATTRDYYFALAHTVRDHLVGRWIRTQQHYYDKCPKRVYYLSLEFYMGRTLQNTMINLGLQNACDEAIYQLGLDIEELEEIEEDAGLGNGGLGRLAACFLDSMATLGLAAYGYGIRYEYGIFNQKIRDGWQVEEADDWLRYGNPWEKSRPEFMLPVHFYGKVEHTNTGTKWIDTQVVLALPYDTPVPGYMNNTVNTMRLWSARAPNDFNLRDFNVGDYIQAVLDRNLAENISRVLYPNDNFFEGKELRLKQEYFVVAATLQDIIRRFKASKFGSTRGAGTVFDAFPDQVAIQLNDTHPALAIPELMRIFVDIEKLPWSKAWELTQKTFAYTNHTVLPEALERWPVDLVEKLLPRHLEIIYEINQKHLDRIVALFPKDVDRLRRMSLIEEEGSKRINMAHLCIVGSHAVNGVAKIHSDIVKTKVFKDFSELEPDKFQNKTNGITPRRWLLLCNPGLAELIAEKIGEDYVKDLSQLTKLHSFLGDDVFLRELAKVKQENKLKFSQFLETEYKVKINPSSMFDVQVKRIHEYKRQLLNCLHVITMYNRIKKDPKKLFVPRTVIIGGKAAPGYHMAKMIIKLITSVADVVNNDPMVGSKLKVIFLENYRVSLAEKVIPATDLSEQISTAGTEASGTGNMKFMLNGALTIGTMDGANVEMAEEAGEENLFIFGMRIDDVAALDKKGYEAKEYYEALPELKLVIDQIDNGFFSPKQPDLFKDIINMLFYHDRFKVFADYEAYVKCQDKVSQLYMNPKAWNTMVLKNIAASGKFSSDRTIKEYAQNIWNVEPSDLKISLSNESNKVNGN

What is called IC50 is the concentration that gives 50% inhibition.

This test concerns the target human liver glycogen phosphorylase (Homo sapiens, UniProt P06737). As to the kind of experiment: Liver glycogen phosphorylase activity, forward reaction system (NADPH detection at 340 nm). The settings on record: enzyme inhibitory activity against recombinant human liver glycogen phosphorylase (Sf9 cell lysate), room temperature, 75 minutes.

In the case of `Cc1nc(C(=O)O)c(CNC(=O)c2cc(NC(=O)c3cc(F)c(F)cc3C)[nH]n2)o1`, the IC50 is below 100 nM.
